The record followed here is ChEMBL document CHEMBL1649198, “Efflux unbalance in Pseudomonas aeruginosa isolates from cystic fibrosis patients” (2009).

For assay [1], the system named is Pseudomonas aeruginosa. The assay can be described thus: Ratio of MIC for Pseudomonas aeruginosa 2858 to MIC for Pseudomonas aeruginosa PAO1. It counts as functional.
In assay [2] the test system is Pseudomonas aeruginosa. The assay can be described thus: Ratio of MIC for Pseudomonas aeruginosa 2933 to MIC for Pseudomonas aeruginosa PAO1. It is filed as functional.

On to GENTAMICIN, for which the fold change (FC) with Pseudomonas aeruginosa [1] and with Pseudomonas aeruginosa [2] was over 4 throughout.
